Experimental findings from ChEMBL document CHEMBL2016448, “Discovery of new piperidine amide triazolobenzodiazepinones as intestinal-selective CCK1 receptor agonists” (Bioorg Med Chem Lett, 2012) are described below.

Chains of the proteins cited; added tags and fusions are not shown.
UniProt P32238, whole entry: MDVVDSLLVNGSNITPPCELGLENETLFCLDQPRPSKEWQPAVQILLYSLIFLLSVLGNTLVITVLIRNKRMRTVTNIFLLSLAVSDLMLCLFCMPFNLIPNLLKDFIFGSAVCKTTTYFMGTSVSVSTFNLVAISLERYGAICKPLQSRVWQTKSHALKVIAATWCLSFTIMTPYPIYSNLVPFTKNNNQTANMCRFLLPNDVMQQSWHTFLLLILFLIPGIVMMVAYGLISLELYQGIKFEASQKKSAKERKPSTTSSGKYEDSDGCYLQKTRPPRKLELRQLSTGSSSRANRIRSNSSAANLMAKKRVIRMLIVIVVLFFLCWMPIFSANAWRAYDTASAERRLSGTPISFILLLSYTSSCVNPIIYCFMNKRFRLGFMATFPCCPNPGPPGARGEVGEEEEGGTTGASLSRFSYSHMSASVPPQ
UniProt P30551, whole entry: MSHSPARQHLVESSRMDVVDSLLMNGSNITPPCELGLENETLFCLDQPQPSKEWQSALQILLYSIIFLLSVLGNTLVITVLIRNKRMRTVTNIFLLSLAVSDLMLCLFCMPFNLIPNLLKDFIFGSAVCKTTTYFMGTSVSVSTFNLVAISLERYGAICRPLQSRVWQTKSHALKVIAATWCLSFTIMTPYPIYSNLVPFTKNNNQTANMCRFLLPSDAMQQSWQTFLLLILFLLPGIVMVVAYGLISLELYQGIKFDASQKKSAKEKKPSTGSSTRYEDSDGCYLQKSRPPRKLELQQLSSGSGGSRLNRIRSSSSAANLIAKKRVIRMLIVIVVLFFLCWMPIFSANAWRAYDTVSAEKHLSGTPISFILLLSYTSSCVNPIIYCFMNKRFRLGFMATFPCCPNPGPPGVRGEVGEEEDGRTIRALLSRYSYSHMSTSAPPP

The structures appear in SMILES notation.

Assay [1] concerns the target T1, Cholecystokinin receptor type A (Homo sapiens, UniProt P32238). In words: Displacement of [125I]-CCK-8 from human CCK1 receptor expressed in CHO cells after 90 mins by liquid scintillation counting.
Assay [2] concerns the target T1, Cholecystokinin receptor type A. Kind of assay: Agonist activity at human CCK1 receptor assessed as increase in CCK8-induced calcium release incubated in dark for 30 mins followed by light incubation for 30 mins measured by FLIPR assay. Format: functional. The method, boiled down:
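FLIPR functional assay in CHO cells expressing human CCK1R. Agonism expressed as % of the CCK-8 peptide response. Initial screen at 30 µM, with >30% counted as active. Actives then run as full dose–response. EC50 is the geometric mean of at least 2 independent experiments.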

Assay [3] deals with Cholecystokinin receptor type A (Rattus norvegicus, UniProt P30551). In words: Displacement of [125I]-CCK-2 from rat CCK1 receptor expressed in CHO cells after 90 mins by liquid scintillation counting. Format: cell-based.

As for `Cc1cc(C)cc(C[C@H]2CCCCN2C(=O)CN2C(=O)[C@@H](Cc3n[nH]c4ccccc34)c3nnc(-c4ccccc4)n3-c3ccccc32)c1`, the IC50 in assay [1] worked out at 0.0203 µM; in assay [3], 0.0147 µM. In addition, the EC50 in assay [2] was found to be 0.0254 µM.

The compound `CC(C)N(Cc1ccccc1)C(=O)CN1C(=O)[C@@H](Cc2c[nH]c3ccccc23)c2nnc(-c3ccccc3)n2-c2ccccc21` [CE-326597] gave an IC50 in assay [1] of 0.0236 µM. Further, in assay [2], the EC50 was determined as 0.123 µM.
